Test [1] has as its target Neonatal rat tau (NT): endogenously phosphorylated neonatal rat 3-repeat tau (rat). As to the kind of experiment: ELISA; tau (dGA, NT or NTP) adsorbed on poly(vinyl chloride) 96-well plates in 50 mM carbonate buffer, 37 °C 1 h; aqueous-phase T40 or T40P in 1% gelatin in PBST, 1 h 37 °C; bound tau detected with mAb 27/499; Langmuir fits; asymptotic constants with the species of the other phase non-limiting.

Amino acid sequences for entries named in this document (tags omitted). A change or cut given only in a name is not applied to a line headed by its entry.
UniProt Q6B856: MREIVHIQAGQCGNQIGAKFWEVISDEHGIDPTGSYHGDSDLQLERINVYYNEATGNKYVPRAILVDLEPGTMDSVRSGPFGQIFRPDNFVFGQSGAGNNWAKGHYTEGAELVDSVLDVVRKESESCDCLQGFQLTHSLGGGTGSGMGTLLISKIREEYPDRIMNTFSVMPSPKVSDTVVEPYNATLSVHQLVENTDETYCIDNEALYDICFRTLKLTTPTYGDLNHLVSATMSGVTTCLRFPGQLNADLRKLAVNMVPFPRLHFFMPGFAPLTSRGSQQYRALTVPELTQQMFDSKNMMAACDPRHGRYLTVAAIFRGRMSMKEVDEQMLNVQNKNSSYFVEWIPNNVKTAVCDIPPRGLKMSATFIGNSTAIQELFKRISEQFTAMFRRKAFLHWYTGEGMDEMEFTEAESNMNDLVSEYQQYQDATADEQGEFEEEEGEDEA

For test [2], the target named is Hyperphosphorylated rat tau (NTP): rat NT hyperphosphorylated in vitro (rat). The test is described as above.
For test [3], the target named is depolymerized bovine tubulin (bovine) (UniProt Q6B856). The test can be described thus: ELISA; depolymerized bovine tubulin adsorbed in the solid phase, T40 or T40P in the aqueous phase, tau binding detected with mAb 27/499. (In general: An ELISA detects its analyte on a solid surface through an enzyme-linked reagent.)

pKd: −log10 of the molar value.

A word on the pKd: it is the negative decadic logarithm of the Kd, by convention in mol/L. Read a high pKd as a low Kd.

For the substance “Full-length, non-phosphorylated recombinant human 2N4R tau (T40) (from UniProt P10636-8 1-441) (natural protein)”, in test [1], the negative logarithm of the Kd (pKd) is 7.68, the Kd,Adsorbed was found to be 8.1 nM, the N1 (estimate of Kd,Aqueous) was 18.8 nM and the N2 (estimate of Kd,Adsorbed) is 8.6 nM. Further, in test [1], the Q1 (estimate of Kd,Adsorbed) is 7.6 nM and the Q2 (estimate of Kd,Aqueous) was 22.8 nM. For the same substance, in test [2], the pKd was 6.12, the Kd,Adsorbed is 10.5 nM, the N1 (estimate of Kd,Aqueous) is 754 nM and the Q1 (estimate of Kd,Adsorbed) was 18.8 nM. Further, in test [2], the Q2 (estimate of Kd,Aqueous) was 759 nM. In test [3], this substance showed a negative-log Kd (pKd) of 6.39.
On to “Hyperphosphorylated tau (T40P): T40 tau hyperphosphorylated in vitro (from UniProt P10636-8 1-441) (natural protein)”, for which, in test [1], the pKd was 6.30, the Kd,Adsorbed amounted to 31.5 nM, the N1 (estimate of Kd,Aqueous) was 627 nM and the N2 (estimate of Kd,Adsorbed) is 39.1 nM. For the same substance, in test [1], the Q1 (estimate of Kd,Adsorbed) was 23.8 nM and the Q2 (estimate of Kd,Aqueous) was 382 nM. Besides, in test [2], the negative logarithm of the Kd (pKd) is 5.97, the Kd,Adsorbed was found to be 100 nM, the N1 (estimate of Kd,Aqueous) was 969 nM and the N2 (estimate of Kd,Adsorbed) is 86 nM. Besides, in test [2], the Q1 (estimate of Kd,Adsorbed) is 115 nM and the Q2 (estimate of Kd,Aqueous) was 1160 nM.
In test [3], “Hyperphosphorylated tau (T40P): T40 tau hyperphosphorylated in vitro (from UniProt P10636-8 1-441) (natural protein; hyperphosphorylated in vitro by rat brain extract; the complete extent of phosphorylation of the many potential sites was not characterized)” had a negative logarithm of the Kd (pKd) of 5.02.

The record behind these values is PMC4919914.
